Assay results as given in publication PMC5250654 (Clinical Drug Investigation, 2016).
Several values for one entry are separate records, joined by “and”; a condition that tells them apart may be missing. Equal entries are not always repeated. Where two headings read alike, the source gives them in different places.

Experiments:
[1] = system: anti-immunoglobulin E-stimulated CD63 expression on basophils; experiment: CD63 assay: ex vivo anti-IgE-stimulated CD63 expression on whole-blood basophils; type: cell-based, human; settings: ≥600 mg twice daily, fasted
[2] = single oral dose, all doses, fasted
[3] = multiple twice-daily dosing, fed conditions
[4] = target: T1, pervanadate-evoked phosphorylated SYK (pSYK) Y525 (Homo sapiens, UniProt P43405)
[5] = target: T1, pervanadate-evoked phosphorylated SYK (pSYK) Y525; experiment: cell-based
[6] = system: SYK versus other kinase targets; settings: cited from earlier work

Compound: c1cn2cc(-c3ccc4cn[nH]c4c3)nc(Nc3ccc(N4CCOCC4)cc3)c2n1 [entospletinib, Entospletinib]
- CD63 inhibition at trough concentrations [1]: > 60% and > 50%
- time to C max after administration [2]: 2 to 3 h
- time to C max after administration (fasted conditions (comparison with fed)): 2 h
- time of C max post-dose (multiple twice-daily doses, fasted): 2 to 3 h
- time to achieve steady-state concentrations (twice-daily dosing): 3 to 4 days
- time to C max after administration [3]: ≤ 4 h
- time of maximal mean inhibition of pSYK expression post-dose ([4]; doses ≥600 mg twice daily): 4–5 h
- inhibition of pSYK expression maintained at C trough ([4]; doses ≥600 mg twice daily, 12 h post-dose): ≥ 54%
- maximal mean inhibition of pSYK expression ([4]; doses ≥600 mg twice daily, peak at 4–5 h post-dose): ≥ 72%
- pSYK inhibition at peak concentrations ([4]; ≥600 mg twice daily, fasted): > 70%
- pSYK inhibition at trough concentrations ([4]; ≥600 mg twice daily, fasted): > 50%
- EC50 [5]: 0.267 µM
- selectivity for SYK versus other kinase targets [6]: greater than 14 fold
